For the data set the following is noted: 150 mg/Kg single I.V. injection, 12-day experiment, female ICR mice.

As for T-DM1, the “recovery trend of body weight at the end of the study” value is on record as “recovery trend was not observed”. For the same substance, the “weight loss of the mice (body weight reduction)” value (FIG. 8) turned out to be 24%.

The record behind these values is patent US20230025327A1, “CONJUGATES OF TUBULYSIN DERIVATIVES AND CELL BINDING MOLECULES AND METHODS OF MAKING” (Hangzhou DAC Biotech Co., Ltd., priority 2019, published 2023).
